# Test results: ChEMBL document CHEMBL2413018, “Nonclassical antifolates, part 4. 5-(2-aminothiazol-4-yl)-4-phenyl-4H-1,2,4-triazole-3-thiols as a new class of DHFR inhibitors: synthesis, biological evaluation and molecular modeling study” (Eur J Med Chem, 2013)
# Tested on: Escherichia coli
sequence,measurement,value
GENTAMICIN,MIC,0.5 µg/mL
